Measurements as given in patent US20150231238A1, “OVERCOMING RESISTANCE TO ERBB PATHWAY INHIBITORS” (MERRIMACK PHARMACEUTICALS, INC., priority 2011, published 2015).

Columns and labels:
BT474-M3 cells = experiment: In vitro breast cancer model, viable cell count after 6 days; type: cell-based; details: basal conditions
[1] = system: trastuzumab-resistant BT474-M3 cell spheroids; experiment: Spheroid assay, trastuzumab-resistant cells; type: cell-based
Description: (§1) BT474-M3 wild type and trastuzumab-resistant cells (2000 cells/well) are plated in Ultra Low Cluster 96-well plates (Costar®, Corning, N.Y.). […] Cells are cultured for six days. Spheroids are then examined by Nikon microscope and analyzed by MetaMorph® Image Analysis Software (Molecular Devices). The spheroid size from cells cultured in medium containing 10% FBS is set as a control.

[2] = system: pAKT in heregulin-stimulated BT474-M3 cells; experiment: Inhibition of AKT phosphorylation in heregulin-stimulated cells; type: cell-based; details: dose range
Description: Viable cells are counted following 6 days of treatment.

[3] = system: BT474-M3 wild type cell spheroids; experiment: Spheroid assay, parental cells; type: cell-based; details: series dilution, six days
Description: as §1

[4] = system: BT474-M3 breast cancer xenograft; experiment: BT474-M3 breast cancer xenograft model; type: in vivo, mice; details: MM-111 3 mg/kg every 3 days, trastuzumab 1 mg/kg weekly
Description: BT474-M3 cells (2×10^7 cells per mice) are inoculated subcutaneously into Nu/Nu immunodeficient mice, which are implanted with an estrogen pellet (0.72 mg; 60-day release) one day before the experiment. […] Tumors are measured twice a week and the experiment is ended at day 40.

[5] = system: trastuzumab-resistant BT474-M3 cells; experiment: Cell proliferation assay (WST-1), trastuzumab-resistant cells; type: cell-based; details: series dilution, five days
Description: (§2) BT474-M3 parental (wild-type) and trastuzumab-resistant cells are plated in 96-well plates (3000 cells/well). […] After five days of treatment, cell viability is measured by WST-1 (Roche, Cat. #5015944001) according to manufacturer's instructions. Cells treated with control (RPMI1640 with 10% FBS) are set as 100%, other treatments are expressed as percentage of the control.

[6] = system: BT474-M3 parental (wild-type) cells; experiment: Cell proliferation assay (WST-1), parental cells; type: cell-based; details: series dilution, five days
Description: as §2

Question: Which results are given for “trastuzumab: humanized anti-HER2 monoclonal antibody [reference compound]”?
Answer: inhibition of cell proliferation (BT474-M3 cells): 32%; inhibition of spheroid growth in combination with gefitinib ([1]; in the presence of 100 nM gefitinib): not sufficient to overcome the resistance; inhibition of spheroid growth in combination with erlotinib ([1]; in the presence of 300 nM erlotinib): not sufficient to overcome the resistance; inhibition of spheroid growth ([1]; trastuzumab-resistant cells, series dilution, six days): diminished; inhibition of AKT phosphorylation [2]: did not inhibit AKT phosphorylation; inhibition of spheroid growth [3]: significantly inhibited spheroid growth; completely regressed tumors [4]: no complete regressions were observed; inhibition of cell proliferation [5]: inhibitory effect was significantly reduced; inhibition of cell proliferation [6]: significantly inhibited cell proliferation
